Assay results reported in patent US10881679B2, “Application of a phillyrin/phillygeninin composition in preparing a medicine or health care product for alleviating or/and treating viral diseases, and medicine or health care product for treating viral diseases” (priority 2014, dated 2021).

Tested on: Vero cells
Test: Cytotoxicity test (MTT) on Vero cells
Format: cell-based, African green monkey
Settings: 72 h
Description: Cytotoxicity test: the drugs were diluted according to the concentrations shown in table 1-1 for determination of cytotoxicity. […] In addition, 6 wells were set up as normal control group (without drugs) while another 6 pores as blank control group (medium only). Cells were grown in a 37° C. incubator under 5% CO2. […] After 72 h, 20 μL MTT solution (5 mg·mL^−1) was added into each well to continue incubation for 4 h. The culture medium in each well was sucked and discarded, 100 μL DMSO was added to each well. Then the culture was shaken for 5 min, measured OD value at 492 nm to calculate the cell survival ratio. The cell survival ratio was analyzed using a Probit regression model in SPSS 18.0 statistical software, and the maximal nontoxic concentration (TC0) and median toxic concentration (TC50) of drugs against Vero cells were calculated.

## NC(=O)c1ncn([C@@H]2O[C@H](CO)[C@@H](O)[C@H]2O)n1 [Ribavirin]
  maximal non-toxic concentration (TC0): 0.065 g/L
